# Reference: PubChem BioAssay (Tox21)
# Chains of the proteins cited; added tags and fusions are not shown.
# UniProt P10635, whole entry, looked up: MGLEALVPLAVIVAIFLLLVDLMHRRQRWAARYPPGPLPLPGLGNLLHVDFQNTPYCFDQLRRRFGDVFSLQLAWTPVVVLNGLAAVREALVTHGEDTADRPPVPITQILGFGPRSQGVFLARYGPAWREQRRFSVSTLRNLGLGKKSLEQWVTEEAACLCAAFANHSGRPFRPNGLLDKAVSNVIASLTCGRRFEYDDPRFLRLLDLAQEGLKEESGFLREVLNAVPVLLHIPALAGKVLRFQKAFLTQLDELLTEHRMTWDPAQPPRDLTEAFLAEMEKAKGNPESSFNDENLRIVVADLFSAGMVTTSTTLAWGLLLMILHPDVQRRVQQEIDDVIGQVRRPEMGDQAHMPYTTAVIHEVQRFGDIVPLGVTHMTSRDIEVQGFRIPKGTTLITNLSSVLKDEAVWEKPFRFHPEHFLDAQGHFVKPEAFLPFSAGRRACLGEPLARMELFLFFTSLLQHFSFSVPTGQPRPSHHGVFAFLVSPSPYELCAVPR
# UniProt P33261, whole entry, looked up: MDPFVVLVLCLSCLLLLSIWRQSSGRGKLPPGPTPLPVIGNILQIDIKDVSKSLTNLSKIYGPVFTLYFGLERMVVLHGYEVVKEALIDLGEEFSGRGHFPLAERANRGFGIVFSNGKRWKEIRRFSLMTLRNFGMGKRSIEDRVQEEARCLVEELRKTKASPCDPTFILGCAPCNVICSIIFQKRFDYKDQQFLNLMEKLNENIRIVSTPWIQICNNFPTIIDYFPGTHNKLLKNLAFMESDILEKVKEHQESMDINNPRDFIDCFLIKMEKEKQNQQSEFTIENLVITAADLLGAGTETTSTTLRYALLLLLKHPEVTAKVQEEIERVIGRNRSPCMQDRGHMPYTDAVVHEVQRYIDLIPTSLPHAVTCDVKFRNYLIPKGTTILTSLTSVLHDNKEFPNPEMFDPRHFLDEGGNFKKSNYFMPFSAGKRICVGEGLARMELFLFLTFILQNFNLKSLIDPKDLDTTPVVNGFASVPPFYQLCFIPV
# UniProt P11712, whole entry, looked up: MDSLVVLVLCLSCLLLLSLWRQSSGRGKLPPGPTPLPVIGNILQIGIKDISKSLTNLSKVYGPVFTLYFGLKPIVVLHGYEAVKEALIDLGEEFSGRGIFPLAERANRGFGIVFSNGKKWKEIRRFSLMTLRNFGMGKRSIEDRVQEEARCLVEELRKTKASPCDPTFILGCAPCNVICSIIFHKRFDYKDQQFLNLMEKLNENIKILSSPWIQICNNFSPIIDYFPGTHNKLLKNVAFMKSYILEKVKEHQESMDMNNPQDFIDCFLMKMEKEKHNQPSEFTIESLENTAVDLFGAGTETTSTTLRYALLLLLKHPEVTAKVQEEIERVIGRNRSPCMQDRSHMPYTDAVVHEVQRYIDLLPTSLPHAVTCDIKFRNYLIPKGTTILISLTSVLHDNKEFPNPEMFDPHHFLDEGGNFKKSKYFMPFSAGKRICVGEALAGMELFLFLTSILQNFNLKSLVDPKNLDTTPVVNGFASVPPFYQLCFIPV
# Where “and” joins values, the source holds several entries; their conditions need not be identical. Equal entries are not always repeated. For some of these results: This list holds what a sample rich in hits left over. Inconclusive results are not listed. Only a part is listed here, and it is no random draw. Some structures have more than one record in an assay (separate samples or runs), and their calls can disagree. Calls of active or inactive are those of the source. Calls follow the shape of the dose curve; as a rule, active = well fitted curve in the direction sought with a large enough effect in the repeat runs; inconclusive = weak or mixed curves; inactive = no such curve, though single readings can be large; an effect the other way counts as inactive or inconclusive.
# System: not listed separately
# Assay: qHTS assay to identify small molecule antagonists of the retinoic acid receptor (RAR) signaling pathway (AID 1159552; also: % is scaled to controls: 0 for no effect and ±100 for the full control effect; nearly all actives have a fitted effect of over 50% in size)
# Conditions: C3RL4 RARE luciferase reporter, retinol-stimulated, 6 h; at 92.4 µM (top of the series) unless noted
# In short: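 C3RL4 RARE-luc cells, overnight plating; retinol 1 uM final added right after compound; 6 hr 37 C; luciferase read at 30 min RT.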
row,Compound,"activity, negative = inhibition"
1,CNC[C@H](O)c1ccc(O)c(O)c1,inactive: 0.13% [at 19 µM]
2,CN1CCc2cccc3c2[C@H]1Cc1ccc(O)c(O)c1-3,inactive: 38.8% [at 42.5 µM]
3,CC1(C)[C@@H](O[C@H]2O[C@H](C(=O)O)[C@@H](O)[C@H](O)[C@H]2O[C@@H]2O[C@H](C(=O)O)[C@@H](O)[C@H](O)[C@H]2O)CC[C@]2(C)[C@H]3C(=O)C=C4[C@@H]5C[C@@](C)(C(=O)O)CC[C@]5(C)CC[C@@]4(C)[C@]3(C)CC[C@@H]12,inactive: 5.66% [at 42.5 µM]
4,O=c1c(O)c(-c2ccc(O)c(O)c2)oc2cc(O)cc(O)c12,inactive: 180% and inactive: -9.22%

# Molecular target: Cytochrome P450 2D6 (Homo sapiens) (UniProt P10635)
# Assay: Cytochrome P450 Family 2 Subfamily D Member 6 (CYP2D6) small molecule antagonists: luciferase reporter qHTS assay (AID 1671196); also: potency is read from the fitted curve at half-maximal effect; nearly all actives have a fitted effect of over 50% in size
# Conditions: P450-Glo CYP2D6 enzyme assay, luciferin luminescence, 1 h
# In short: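 Each well received CYP2D6 with its proluciferin substrate and chemical, sat 10 min, then got NADPH regeneration solution for 1 h at room temperature. Luminescence in RLU served as the activity measure.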
row,Compound,Potency
1,CC(C)Cn1cnc2c(N)nc3ccccc3c21,active: 6.01 µM
2,CN(C)c1ccc2nc3ccc(=[N+](C)C)cc-3sc2c1,active: 15.3 µM and active: 11.2 µM and active: 11 µM
3,COc1cc(NC(C)CCCN)c2ncccc2c1 (centres undefined),active: 8.71 µM
4,COc1cc(N)c(Cl)cc1C(=O)NC1CCN(CCCOc2ccc(F)cc2)CC1OC (centres undefined),active: 0.275 µM

# Molecular target: Cytochrome P450 2C19 (Homo sapiens) (UniProt P33261)
# Assay: Cytochrome P450 Family 2 Subfamily C Member 19 (CYP2C19) small molecule antagonists: luciferase reporter qHTS assay (AID 1671197); also: potency is read from the fitted curve at half-maximal effect; nearly all actives have a fitted effect of over 65% in size
# Conditions: P450-Glo CYP2C19 enzyme, luciferin luminescence, 1 h
# In short: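 Enzyme-substrate mix with proluciferin substrate (P450-Glo CYP2C19 system) preincubated with compounds 10 min at room temperature; NADPH regeneration solution added, 37C for 1 h; detection reagent stops reaction, luminescence read after 20 min. Ketoconazole positive control.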
row,Compound,Potency
1,O=C(O)c1cccc(C(=O)O)n1,active: 79.6 µM
2,CCc1nc(N)nc(N)c1-c1ccc(Cl)cc1,active: 40.5 µM and active: 39.9 µM
3,Cc1c(C)c2c(c(C)c1O)CCC(C)(COc1ccc(CC3SC(=O)NC3=O)cc1)O2 (centres undefined),active: 79.6 µM
4,CN(C)c1ccc2nc3ccc(=[N+](C)C)cc-3sc2c1,active: 242 nM and active: 224 nM and active: 219 nM
5,COc1cc(NC(C)CCCN)c2ncccc2c1 (centres undefined),active: 12.3 µM
6,O=C(/C=C/C=C/c1ccc2c(c1)OCO2)N1CCCCC1,active: 40 µM and active: 35.6 µM

# Molecular target: Cytochrome P450 2C9 (Homo sapiens) (UniProt P11712)
# Assay: Cytochrome P450 Family 2 Subfamily C Member 9 (CYP2C9) small molecule antagonists: luciferase reporter qHTS assay (AID 1671198); also: potency is read from the fitted curve at half-maximal effect; nearly all actives have a fitted effect of over 50% in size
# Conditions: P450-Glo CYP2C9 enzyme assay, luciferin luminescence
# In short: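 CYP2C9 activity was measured with a P450-Glo proluciferin substrate. Enzyme–substrate mix was held with compound for 10 min at room temperature, then NADPH regeneration solution was added for 1 h at 37C. Luciferin product was read as luminescence.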
row,Compound,Potency
1,CN(C)c1ccc2nc3ccc(=[N+](C)C)cc-3sc2c1,active: 5.42 µM and active: 7.96 µM and active: 9.77 µM
2,COc1cc(NC(C)CCCN)c2ncccc2c1 (centres undefined),active: 30.9 µM
3,C#C[C@]1(O)CC[C@H]2[C@@H]3CCC4=Cc5oncc5C[C@]4(C)[C@H]3CC[C@@]21C,active: 2.24 µM and active: 2.45 µM
4,OC(Cn1cncn1)(Cn1cncn1)c1ccc(F)cc1F,active: 25.4 µM and active: 35.6 µM and active: 13.8 µM
5,O=c1c(O)c(-c2ccc(O)c(O)c2)oc2cc(O)cc(O)c12,active: 28.5 µM [middle of 4 runs]
